Tests used:
Experiment in all cases: Kinase profiling, Z-Lyte
ABL2 (Arg) = ABL2 (Arg) (Homo sapiens, UniProt P42684)
BLK = BLK (Homo sapiens, UniProt P51451); settings: 1 μM, KmATP
CAMK2A = CAMK2A (Homo sapiens, UniProt Q9UQM7); settings: 1 μM, KmATP
CAMK2D = CAMK2D (Homo sapiens, UniProt Q13557); settings: 1 μM, KmATP
CAMK4 (CaMKIV) = CAMK4 (CaMKIV) (Homo sapiens, UniProt Q16566); settings: 1 μM, KmATP
CDC42 BPA (MRCKA) = CDC42 BPA (MRCKA) (Homo sapiens, UniProt Q5VT25); settings: 1 μM, KmATP
CDC42 BPB (MRCKB) = CDC42 BPB (MRCKB) (Homo sapiens, UniProt Q9Y5S2); settings: 1 μM, KmATP
CDKL5 = CDKL5 (Homo sapiens, UniProt O76039); settings: 1 μM, KmATP
CLK1 = CLK1 (Homo sapiens, UniProt P49759); settings: 1 μM, KmATP
CLK2 = CLK2 (Homo sapiens, UniProt P49760); settings: 1 μM, KmATP
CSNK1G2 (CK1gamma2) = CSNK1G2 (CK1gamma2) (Homo sapiens, UniProt P78368); settings: 1 μM, KmATP
EPHA1 = EPHA1 (Homo sapiens, UniProt P21709)
EPHA8 = EPHA8 (Homo sapiens, UniProt P29322)
EPHB4 = EPHB4 (Homo sapiens, UniProt P54760)
FRK (PTK5) = FRK (PTK5) (Homo sapiens, UniProt P42685); settings: 1 μM, KmATP
GRK6 = GRK6 (Homo sapiens, UniProt P43250); settings: 1 μM, KmATP
HIPK3 (YAK1) = HIPK3 (YAK1) (Homo sapiens, UniProt Q9H422); settings: 1 μM, KmATP
HIPK4 = HIPK4 (Homo sapiens, UniProt Q8NE63); settings: 1 μM, KmATP
IKBKB (IKKbeta) = IKBKB (IKKbeta) (Homo sapiens, UniProt O14920); settings: 1 μM, KmATP
JAK1 = JAK1 (Homo sapiens, UniProt P23458); settings: 1 μM, KmATP
JAK2 = JAK2 (Homo sapiens, UniProt O60674); settings: 1 μM, KmATP
LYN B = LYN B (Homo sapiens, UniProt P07948)
MAP4K2 (GCK) = MAP4K2 (GCK) (Homo sapiens, UniProt Q12851); settings: 1 μM, KmATP
MAP4K5 (KHS1) = MAP4K5 (KHS1) (Homo sapiens, UniProt Q9Y4K4); settings: 1 μM, KmATP
MAPK1 (ERK2) = MAPK1 (ERK2) (Homo sapiens, UniProt P28482); settings: 1 μM, KmATP
MAPKAPK2 = MAPKAPK2 (Homo sapiens, UniProt P49137); settings: 1 μM, KmATP
MET (cMet) = MET (cMet) (Homo sapiens, UniProt P08581); settings: 1 μM, KmATP
PIM1 = PIM1 (Homo sapiens, UniProt P11309); settings: 1 μM, KmATP
PLK2 = PLK2 (Homo sapiens, UniProt Q9NYY3); settings: 1 μM, KmATP
PRKCB2 (PKC Beta II) = PRKCB2 (PKC Beta II) (Homo sapiens, UniProt P05771); settings: 1 μM, KmATP
PRKCE (PKC epsilon) = PRKCE (PKC epsilon) (Homo sapiens, UniProt Q02156); settings: 1 μM, KmATP
RET Hu Phos = RET Hu Phos (Homo sapiens, UniProt P07949); settings: 1 μM, KmATP
RPS6KA2 (RSK3) = RPS6KA2 (RSK3) (Homo sapiens, UniProt Q15349); settings: 1 μM, KmATP
RPS6KA3 (RSK2) = RPS6KA3 (RSK2) (Homo sapiens, UniProt P51812); settings: 1 μM, KmATP
RPS6KA6 (RSK4) = RPS6KA6 (RSK4) (Homo sapiens, UniProt Q9UK32); settings: 1 μM, KmATP
SGKL (SGK3) = SGKL (SGK3) (Homo sapiens, UniProt Q96BR1); settings: 1 μM, KmATP
SRPK2 = SRPK2 (Homo sapiens, UniProt P78362); settings: 1 μM, KmATP
STK22B (TSSK2) = STK22B (TSSK2) (Homo sapiens, UniProt Q96PF2); settings: 1 μM, KmATP
TAOK2 (TAO1) = TAOK2 (TAO1) (Homo sapiens, UniProt Q9UL54); settings: 1 μM, KmATP

By UniProt entry, the sequences of proteins in these tests, tags left out. Residues count along the entry.
UniProt Q9UQM7, whole entry: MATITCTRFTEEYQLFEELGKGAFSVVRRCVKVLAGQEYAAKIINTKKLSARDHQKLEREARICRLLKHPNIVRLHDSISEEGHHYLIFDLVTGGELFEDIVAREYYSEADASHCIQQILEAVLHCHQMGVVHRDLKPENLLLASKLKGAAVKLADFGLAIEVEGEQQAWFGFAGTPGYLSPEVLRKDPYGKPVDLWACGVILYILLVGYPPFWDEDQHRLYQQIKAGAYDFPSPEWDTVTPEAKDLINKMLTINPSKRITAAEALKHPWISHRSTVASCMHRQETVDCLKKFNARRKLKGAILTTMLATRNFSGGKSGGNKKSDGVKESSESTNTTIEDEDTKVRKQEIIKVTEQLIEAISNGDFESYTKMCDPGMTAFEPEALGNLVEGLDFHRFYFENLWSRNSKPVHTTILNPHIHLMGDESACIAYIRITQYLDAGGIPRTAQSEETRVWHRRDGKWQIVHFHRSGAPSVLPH
UniProt Q9Y5S2, whole entry: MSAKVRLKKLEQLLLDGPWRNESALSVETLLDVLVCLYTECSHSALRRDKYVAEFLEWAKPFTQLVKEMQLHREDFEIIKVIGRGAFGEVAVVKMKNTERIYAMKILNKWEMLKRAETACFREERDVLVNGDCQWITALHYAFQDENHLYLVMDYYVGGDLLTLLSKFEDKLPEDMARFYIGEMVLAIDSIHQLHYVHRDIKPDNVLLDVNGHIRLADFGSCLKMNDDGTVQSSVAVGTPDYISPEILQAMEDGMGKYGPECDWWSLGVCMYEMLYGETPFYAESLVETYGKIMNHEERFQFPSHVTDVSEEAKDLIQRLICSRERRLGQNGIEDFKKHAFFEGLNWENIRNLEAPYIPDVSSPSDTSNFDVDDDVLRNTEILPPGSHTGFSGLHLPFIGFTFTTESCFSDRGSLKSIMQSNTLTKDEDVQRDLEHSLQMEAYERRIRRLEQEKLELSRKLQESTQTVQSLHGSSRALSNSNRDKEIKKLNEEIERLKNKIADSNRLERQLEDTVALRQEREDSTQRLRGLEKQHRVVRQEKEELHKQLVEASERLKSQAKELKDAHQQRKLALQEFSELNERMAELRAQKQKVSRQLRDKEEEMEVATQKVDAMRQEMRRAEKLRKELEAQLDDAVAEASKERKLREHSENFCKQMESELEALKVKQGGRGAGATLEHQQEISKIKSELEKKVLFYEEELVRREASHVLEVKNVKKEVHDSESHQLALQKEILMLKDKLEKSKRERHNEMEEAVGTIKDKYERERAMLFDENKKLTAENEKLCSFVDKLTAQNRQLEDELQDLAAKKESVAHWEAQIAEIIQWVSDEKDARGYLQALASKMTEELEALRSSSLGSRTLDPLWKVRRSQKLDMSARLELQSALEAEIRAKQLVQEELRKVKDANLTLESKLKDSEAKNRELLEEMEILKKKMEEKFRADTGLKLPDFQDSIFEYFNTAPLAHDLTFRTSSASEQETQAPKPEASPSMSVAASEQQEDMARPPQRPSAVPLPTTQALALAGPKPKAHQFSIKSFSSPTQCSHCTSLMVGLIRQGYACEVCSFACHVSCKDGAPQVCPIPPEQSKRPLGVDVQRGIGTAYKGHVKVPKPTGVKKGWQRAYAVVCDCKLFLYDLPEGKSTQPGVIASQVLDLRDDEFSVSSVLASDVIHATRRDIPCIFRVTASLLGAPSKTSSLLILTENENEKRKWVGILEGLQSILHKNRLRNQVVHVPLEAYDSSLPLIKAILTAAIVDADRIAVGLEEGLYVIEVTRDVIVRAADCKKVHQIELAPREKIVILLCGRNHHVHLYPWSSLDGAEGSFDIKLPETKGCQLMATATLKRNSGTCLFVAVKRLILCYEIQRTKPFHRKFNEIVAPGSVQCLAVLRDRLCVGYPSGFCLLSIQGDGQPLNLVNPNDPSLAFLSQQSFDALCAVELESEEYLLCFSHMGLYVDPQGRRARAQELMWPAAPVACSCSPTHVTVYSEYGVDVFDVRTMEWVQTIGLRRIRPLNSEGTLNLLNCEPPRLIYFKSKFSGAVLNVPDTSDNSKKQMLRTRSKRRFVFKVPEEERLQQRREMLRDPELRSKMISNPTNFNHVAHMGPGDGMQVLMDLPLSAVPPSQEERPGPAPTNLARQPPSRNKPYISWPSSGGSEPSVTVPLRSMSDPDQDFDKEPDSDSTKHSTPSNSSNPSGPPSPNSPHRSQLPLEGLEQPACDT
UniProt P21709, 26-976 limits assumed: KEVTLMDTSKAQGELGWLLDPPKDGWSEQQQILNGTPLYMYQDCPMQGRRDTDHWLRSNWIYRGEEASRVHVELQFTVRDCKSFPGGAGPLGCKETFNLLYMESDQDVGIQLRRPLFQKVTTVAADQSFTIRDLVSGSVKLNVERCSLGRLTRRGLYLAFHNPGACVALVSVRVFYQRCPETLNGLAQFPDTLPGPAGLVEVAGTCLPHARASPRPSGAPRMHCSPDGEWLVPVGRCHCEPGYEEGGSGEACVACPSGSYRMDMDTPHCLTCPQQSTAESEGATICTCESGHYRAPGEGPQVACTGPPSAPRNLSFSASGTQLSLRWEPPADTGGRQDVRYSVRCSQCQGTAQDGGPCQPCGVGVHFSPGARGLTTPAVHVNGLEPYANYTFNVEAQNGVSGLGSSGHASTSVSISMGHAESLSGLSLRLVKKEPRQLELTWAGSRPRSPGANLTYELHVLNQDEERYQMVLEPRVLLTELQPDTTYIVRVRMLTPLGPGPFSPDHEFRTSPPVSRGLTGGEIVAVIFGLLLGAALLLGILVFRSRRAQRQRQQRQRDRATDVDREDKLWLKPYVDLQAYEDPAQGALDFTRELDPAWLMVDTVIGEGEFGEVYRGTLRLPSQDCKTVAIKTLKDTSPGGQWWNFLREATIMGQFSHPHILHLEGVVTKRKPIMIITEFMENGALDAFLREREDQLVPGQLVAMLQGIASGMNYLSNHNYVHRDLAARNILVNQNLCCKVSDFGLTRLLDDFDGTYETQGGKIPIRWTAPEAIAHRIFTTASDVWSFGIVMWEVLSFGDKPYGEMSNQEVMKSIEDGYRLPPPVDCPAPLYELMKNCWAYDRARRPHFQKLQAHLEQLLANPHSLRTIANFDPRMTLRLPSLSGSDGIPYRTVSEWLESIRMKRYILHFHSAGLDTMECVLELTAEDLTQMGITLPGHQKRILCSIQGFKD
UniProt P43250, whole entry: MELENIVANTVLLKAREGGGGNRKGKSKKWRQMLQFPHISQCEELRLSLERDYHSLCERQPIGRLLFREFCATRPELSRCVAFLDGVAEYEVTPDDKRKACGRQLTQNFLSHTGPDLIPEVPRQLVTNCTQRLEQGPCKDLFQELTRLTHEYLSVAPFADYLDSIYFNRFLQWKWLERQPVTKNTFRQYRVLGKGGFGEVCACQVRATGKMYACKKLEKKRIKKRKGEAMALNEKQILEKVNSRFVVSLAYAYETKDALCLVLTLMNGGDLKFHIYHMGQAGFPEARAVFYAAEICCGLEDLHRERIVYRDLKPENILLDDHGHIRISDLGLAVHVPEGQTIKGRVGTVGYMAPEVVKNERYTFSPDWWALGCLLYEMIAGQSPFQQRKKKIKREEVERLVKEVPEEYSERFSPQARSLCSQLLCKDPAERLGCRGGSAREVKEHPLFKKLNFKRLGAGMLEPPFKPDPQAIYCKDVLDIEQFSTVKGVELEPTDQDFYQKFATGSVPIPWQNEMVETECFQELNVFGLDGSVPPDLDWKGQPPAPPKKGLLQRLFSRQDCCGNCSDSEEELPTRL
UniProt O14920, whole entry: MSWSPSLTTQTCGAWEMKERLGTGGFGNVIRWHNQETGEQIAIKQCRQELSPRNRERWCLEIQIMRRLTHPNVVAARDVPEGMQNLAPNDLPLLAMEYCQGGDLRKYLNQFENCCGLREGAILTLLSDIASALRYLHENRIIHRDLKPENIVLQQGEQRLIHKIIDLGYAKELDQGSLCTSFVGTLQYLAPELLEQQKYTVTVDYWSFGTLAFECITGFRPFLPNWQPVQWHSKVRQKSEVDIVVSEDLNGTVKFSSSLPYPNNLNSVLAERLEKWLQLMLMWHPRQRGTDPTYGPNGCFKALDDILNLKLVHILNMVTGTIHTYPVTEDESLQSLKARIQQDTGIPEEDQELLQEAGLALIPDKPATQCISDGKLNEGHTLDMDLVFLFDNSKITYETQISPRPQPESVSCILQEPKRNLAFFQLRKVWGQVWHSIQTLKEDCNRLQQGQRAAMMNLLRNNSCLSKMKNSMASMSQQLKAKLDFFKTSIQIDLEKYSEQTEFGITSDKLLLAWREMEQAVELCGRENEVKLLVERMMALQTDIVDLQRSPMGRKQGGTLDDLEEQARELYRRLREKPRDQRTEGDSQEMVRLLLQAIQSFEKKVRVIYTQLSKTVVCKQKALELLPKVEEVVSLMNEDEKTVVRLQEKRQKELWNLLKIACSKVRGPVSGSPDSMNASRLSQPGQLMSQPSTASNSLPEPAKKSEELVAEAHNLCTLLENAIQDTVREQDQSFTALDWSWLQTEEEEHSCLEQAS
UniProt P49137, whole entry: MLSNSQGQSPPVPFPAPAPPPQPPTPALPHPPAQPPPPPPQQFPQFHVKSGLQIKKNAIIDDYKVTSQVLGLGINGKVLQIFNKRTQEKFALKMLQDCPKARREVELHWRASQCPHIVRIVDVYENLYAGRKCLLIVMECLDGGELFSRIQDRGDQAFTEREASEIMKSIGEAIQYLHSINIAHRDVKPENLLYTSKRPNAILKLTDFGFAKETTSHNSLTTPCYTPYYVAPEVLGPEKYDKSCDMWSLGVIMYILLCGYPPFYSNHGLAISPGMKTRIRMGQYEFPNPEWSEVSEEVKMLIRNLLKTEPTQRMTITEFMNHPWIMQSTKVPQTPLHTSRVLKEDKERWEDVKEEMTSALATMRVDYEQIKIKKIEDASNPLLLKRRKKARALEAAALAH
UniProt Q96PF2, whole entry: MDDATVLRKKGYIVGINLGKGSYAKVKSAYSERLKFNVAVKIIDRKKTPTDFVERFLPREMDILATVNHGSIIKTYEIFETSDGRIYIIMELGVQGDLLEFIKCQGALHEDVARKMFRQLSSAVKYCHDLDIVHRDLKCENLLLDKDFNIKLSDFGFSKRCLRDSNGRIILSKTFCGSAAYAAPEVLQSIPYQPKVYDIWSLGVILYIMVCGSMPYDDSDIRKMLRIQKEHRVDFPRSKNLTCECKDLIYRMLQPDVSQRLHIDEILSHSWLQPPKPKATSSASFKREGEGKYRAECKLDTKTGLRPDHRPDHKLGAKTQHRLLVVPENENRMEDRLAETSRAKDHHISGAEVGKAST
UniProt Q9UL54, whole entry: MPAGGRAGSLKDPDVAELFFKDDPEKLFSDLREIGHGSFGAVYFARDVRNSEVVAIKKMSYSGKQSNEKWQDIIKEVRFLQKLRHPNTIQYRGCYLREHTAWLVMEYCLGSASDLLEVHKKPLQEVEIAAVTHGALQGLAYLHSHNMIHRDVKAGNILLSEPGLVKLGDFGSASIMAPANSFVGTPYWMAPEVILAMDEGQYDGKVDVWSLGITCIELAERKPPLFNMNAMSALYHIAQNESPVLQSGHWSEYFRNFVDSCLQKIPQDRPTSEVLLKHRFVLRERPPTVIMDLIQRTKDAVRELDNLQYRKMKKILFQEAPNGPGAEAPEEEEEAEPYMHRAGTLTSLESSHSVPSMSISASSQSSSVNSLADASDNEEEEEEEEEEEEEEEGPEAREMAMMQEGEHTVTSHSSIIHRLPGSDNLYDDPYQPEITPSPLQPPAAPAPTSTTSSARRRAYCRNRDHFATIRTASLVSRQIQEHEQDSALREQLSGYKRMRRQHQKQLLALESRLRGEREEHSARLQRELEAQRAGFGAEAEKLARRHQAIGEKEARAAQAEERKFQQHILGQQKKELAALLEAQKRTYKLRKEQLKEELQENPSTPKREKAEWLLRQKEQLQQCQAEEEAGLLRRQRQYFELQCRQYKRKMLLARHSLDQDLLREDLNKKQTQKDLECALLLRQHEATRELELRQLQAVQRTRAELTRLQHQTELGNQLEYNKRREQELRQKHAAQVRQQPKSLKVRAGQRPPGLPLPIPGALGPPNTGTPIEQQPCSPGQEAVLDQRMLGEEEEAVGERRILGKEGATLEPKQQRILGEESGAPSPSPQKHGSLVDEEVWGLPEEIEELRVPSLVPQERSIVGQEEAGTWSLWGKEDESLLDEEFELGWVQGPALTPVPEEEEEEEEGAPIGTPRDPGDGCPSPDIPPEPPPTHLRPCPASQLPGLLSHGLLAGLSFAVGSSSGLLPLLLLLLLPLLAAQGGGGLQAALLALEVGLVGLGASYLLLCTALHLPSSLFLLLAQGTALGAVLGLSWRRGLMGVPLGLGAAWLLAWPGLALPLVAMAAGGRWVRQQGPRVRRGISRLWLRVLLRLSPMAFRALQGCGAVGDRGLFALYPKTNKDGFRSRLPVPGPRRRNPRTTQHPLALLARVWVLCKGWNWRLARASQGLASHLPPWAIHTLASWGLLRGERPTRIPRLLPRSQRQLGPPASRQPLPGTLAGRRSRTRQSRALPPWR

Cc1nc(C(F)(F)F)c2c(C(N)=O)c(N)n(-c3c(C)ccc(O)c3C)c2n1 (single isomer, unassigned)
MEAN INHIBITION (ABL2 (Arg); 1 μM, KmATP): 74.616% | IC50 (ABL2 (Arg); 10-point CR, ATP 25.000 μM): 208 nM | MEAN INHIBITION (BLK): 34.144% | MEAN INHIBITION (CAMK2A): 2.396% | MEAN INHIBITION (CAMK2D): 17.732% | MEAN INHIBITION (CAMK4 (CaMKIV)): −0.707% | MEAN INHIBITION (CDC42 BPA (MRCKA)): −3.181% | MEAN INHIBITION (CDC42 BPB (MRCKB)): −1.544% | MEAN INHIBITION (CDKL5): −1.234% | MEAN INHIBITION (CLK1): 0.999% | MEAN INHIBITION (CLK2): 7.005% | MEAN INHIBITION (CSNK1G2 (CK1gamma2)): 1.270% | MEAN INHIBITION (EPHA1; 1 μM, KmATP): 96.280% | IC50 (EPHA1; 10-point CR, ATP 25.000 μM): 37 nM | MEAN INHIBITION (EPHA8; 1 μM, KmATP): 35.008% | IC50 (EPHA8; 10-point CR, ATP 100.000 μM): 1170 nM | MEAN INHIBITION (EPHB4; 1 μM, KmATP): 59.449% | IC50 (EPHB4; 10-point CR, ATP 100.000 μM): 466 nM | MEAN INHIBITION (FRK (PTK5)): 67.392% | MEAN INHIBITION (GRK6): 2.821% | MEAN INHIBITION (HIPK3 (YAK1)): 0.970% | MEAN INHIBITION (HIPK4): 1.188% | MEAN INHIBITION (IKBKB (IKKbeta)): 3.452% | MEAN INHIBITION (JAK1): 2.549% | MEAN INHIBITION (JAK2): 3.492% | MEAN INHIBITION (LYN B; 1 μM, KmATP): 52.127% | IC50 (LYN B; 10-point CR, ATP 25.000 μM): 387 nM | MEAN INHIBITION (MAP4K2 (GCK)): −5.172% | MEAN INHIBITION (MAP4K5 (KHS1)): −1.141% | MEAN INHIBITION (MAPK1 (ERK2)): 1.904% | MEAN INHIBITION (MAPKAPK2): 1.297% | MEAN INHIBITION (MET (cMet)): −1.374% | MEAN INHIBITION (PIM1): −1.231% | MEAN INHIBITION (PLK2): 0.391% | MEAN INHIBITION (PRKCB2 (PKC Beta II)): 5.028% | MEAN INHIBITION (PRKCE (PKC epsilon)): 0.959% | MEAN INHIBITION (RET Hu Phos): 13.595% | MEAN INHIBITION (RPS6KA2 (RSK3)): 31.595% | MEAN INHIBITION (RPS6KA3 (RSK2)): 7.084% | MEAN INHIBITION (RPS6KA6 (RSK4)): 14.718% | MEAN INHIBITION (SGKL (SGK3)): −1.282% | MEAN INHIBITION (SRPK2): 3.415% | MEAN INHIBITION (STK22B (TSSK2)): 4.540% | MEAN INHIBITION (TAOK2 (TAO1)): −1.299%

Source: US20260384438A1, “PYRROLOPYRIMIDINE CARBOXAMIDES” (published 2026)
